Chains of the proteins cited; added tags and fusions are not shown.
Melanocortin receptor 4 (Homo sapiens), P32245, UniProt P32245, whole entry, looked up: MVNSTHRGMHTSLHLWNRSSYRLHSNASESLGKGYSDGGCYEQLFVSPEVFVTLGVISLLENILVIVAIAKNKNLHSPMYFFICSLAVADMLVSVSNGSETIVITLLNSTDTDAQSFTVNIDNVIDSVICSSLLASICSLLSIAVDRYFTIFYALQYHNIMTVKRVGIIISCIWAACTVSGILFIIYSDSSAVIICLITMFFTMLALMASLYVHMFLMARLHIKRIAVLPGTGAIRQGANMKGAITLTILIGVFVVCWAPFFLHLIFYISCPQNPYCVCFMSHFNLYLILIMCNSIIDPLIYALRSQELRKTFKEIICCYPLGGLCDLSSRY

# Screening data from PubChem BioAssay.
# In the library only some 4.2% were active in any assay of this set; here they are far more common.
# MC4R antagonist – MC4R antagonists of cAMP signaling, primary screen, cell-based, TR-FRET, antagonist arm of biased-ligand search. Melanocortin receptor 4 (Homo sapiens), P32245. MC4R-expressing cells, MTII-stimulated cAMP, LANCE TR-FRET. inhibition, % at 6.5 µM. 360,000 compounds, 0.48% hits. AID 540295, 2011;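 active = inhibition above its plate's cutoff, the mean of tested wells on that plate plus 3 SD, cut at about 29% in these data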
#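 System – human MC4R-expressing U2OS cells · Also added – Melanotan II · Dosing – one concentration, 6.5 µM nominal · Timing – 30-min compound, 1-h challenge, 1-h detection, room temperature · Measured by – Eu-cAMP/anti-cAMP TR-FRET, emission 671 nm · Replicates – singlicate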
# MC4R barr agon – MC4R agonists recruiting beta-arrestin, primary screen, cell-based, luminescence, agonist arm of biased-ligand search. activation, % at 8.9 µM. U2OS MC4R beta-arrestin complementation; percent of melanotan II response, DMSO zero. Melanocortin receptor 4 (Homo sapiens), P32245. 360,000 compounds, 0.98% hits;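 active = activation above a per-plate cutoff, the mean activation of sample wells on that plate plus 3 SD, cut at about 8% in these data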
# Yeast UUG start – modulators of start codon recognition fidelity in yeast; S. cerevisiae UUG-firefly luciferase reporter, luminescence/redox ratio; AID 602363; 350,000 tested, 0.13% active; activity score, % at 18.7 µM;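 active = replicate mean at a twofold rise or more, about +100% in these data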;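 also: firefly luciferase made from a UUG start codon reports start codon fidelity; reporter light over untreated wells divided by growth signal over untreated wells; some hits fall short of that in this replicate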
# NALP1 inh – NALP1 inflammasome inhibitors in reconstituted yeast, colorimetric, S. cerevisiae, triplicate retest; 280,000 compounds, 0.61% hits; inhibition, % at 10 µM; S. cerevisiae NALP1/ASC/caspase-1 growth, X-gal OD620, 72 h; AID 2071, 2009; in the data active = inhibition mostly above about 24%, no sharp cut-off; inactive = mostly below about 32%
# ALR H2O2 inh – inhibitors of human sulfhydryl oxidase ALR; 290,000 tested, 3.8% active; inhibition, % (test concentration not listed); AID 485317; P55789; purified ALR, DTT oxidation, H2O2 HRP-luminol luminescence;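 active = mean and each replicate at 75% or more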;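 also: stock transfer was 7.5 nL into about 7.5 µL; 0% = neutral wells and 100% = wells with inactivated enzyme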
# HDAC3 inh – HDAC3 deacetylase inhibitors, primary screen, biochemical, fluorescence, cell-free homogeneous; recombinant HDAC3, fluorogenic peptide/trypsin coupled; AID 2718, 2010; inhibition, % at 8.3 µM; 320,000 compounds, 0.15% hits; Histone deacetylase 3 (Homo sapiens), O15379; in the data active = inhibition above about 26%, passing the limit was not always enough
# Hits are given with their value; 0 = inactive; - = no result given.
SMILES,MC4R antagonist,MC4R barr agon,Yeast UUG start,NALP1 inh,ALR H2O2 inh,HDAC3 inh
O=C(NC(=S)NCc1nc2ccccc2[nH]1)c1ccc(F)cc1,0,0,-,0,75.7,0
O=C1C=CC(=O)N1CCCCCCN1C(=O)C=CC1=O,-,-,-,111.6,0,0
O=C(O)CN1C(=O)C=CC1=O,0,0,0,-,-,-
COCCCNCCOCCOc1c(OC)cccc1OC,0,0,-,23.9,0,0
COc1cccc(OC)c1OCCNCCO,0,0,0,0,0,0
Fc1ccc(-c2csc(N3CCC(c4ccccc4)C3)n2)cc1 (stereo not given),0,0,0,31.6,0,0
Clc1ccc(-c2csc(N3CCC(c4ccccc4)C3)n2)cc1 (stereo not given),0,0,0,0,0,0
O=C(c1ccccc1F)N1CC[C@@H]2[C@H](CO)Nc3ccc(Br)cc3[C@@H]21,-,-,0,-,-,-
COC(=O)C1CC23C=CCN4CCC5(c6ccccc6NC15C2C)C43 (stereo not given),0,0,0,37.1,0,0
C[C@H](CO)N1C[C@H](C)[C@@H](CN(C)C)Oc2ccc(NS(=O)(=O)c3ccc(Cl)cc3)cc2CC1=O,-,-,0,-,-,-
COC(=O)/C(=C/c1c[nH]c2ccccc12)NC(C)=O,0,0,-,0,0,0
CCOC(=O)/C(=C/c1c[nH]c2ccccc12)NC(C)=O,0,0,0,0,97.0,0
CN1CCN(C(=O)C[C@@H]2C[C@H]3c4cc(NC(=O)Nc5ccc(C(F)(F)F)cc5)ccc4O[C@H]3[C@H](CO)O2)CC1,-,-,0,-,-,-
O=C(Nc1ccccc1F)c1ccc2nc(N3C(=O)CCC3=O)sc2c1,32.8,0,0,0,0,0
Cc1noc(C)c1NC(=O)Nc1ccc2c(c1)C(=O)N([C@H](C)CO)C[C@H](C)[C@H](CN(C)C(=O)c1ccccc1)OCCCC[C@@H](C)O2,-,-,0,-,-,-
Cc1cc(C)cc(N2C(=O)C3C4C=CC(C4)C3C2=O)c1 (stereo not given),0,0,0,37.7,0,0
C[C@@H]1CN([C@@H](C)CO)S(=O)(=O)c2ccc(C#Cc3ccccc3)cc2O[C@H]1CN(C)C,-,-,0,-,-,-
C[C@@H]1CN([C@H](C)CO)C(=O)c2cccc(NC(=O)NC3CCCCC3)c2O[C@H]1CN(C)S(C)(=O)=O,-,-,0,-,-,-
C[C@@H]1Cn2cnc(C(=O)Nc3ccccc3)c2C(=O)N1,0,0,0,-,-,-
CC1CC/C(=N/Nc2ccccc2)C(=O)N1 (stereo not given),0,0,-,0,99.0,0
COCC(=O)Nc1ccc2c(c1)C(=O)N(C)C[C@@H](OC)[C@@H](C)CN(Cc1cccnc1)[C@H](C)CO2,-,-,0,-,-,-
Cc1cc(C)c2oc(=O)cc(CN3CCOCC3)c2c1,0,0,0,0,0,0
Cc1c(O)ccc2c(CN3CCN(CCO)CC3)cc(=O)oc12,0,0,-,0,90.0,0
Cc1c(O)ccc2c(CN3CCOCC3)cc(=O)oc12,0,0,0,0,88.1,0
O=C(c1ccccc1)N1CCN=C1SCc1ccc([N+](=O)[O-])cc1,0,0,-,0,98.7,0
SMILES,MC4R antagonist,MC4R barr agon,Yeast UUG start,NALP1 inh,ALR H2O2 inh,HDAC3 inh
O=C(c1ccc([N+](=O)[O-])cc1)N1CCN=C1SCc1ccccc1,0,0,-,0,-,0
Cc1ccc(C(=O)N2CCN=C2SCc2ccc([N+](=O)[O-])cc2)cc1C,0,0,-,0,99.2,0
O=C(C[C@H]1CC[C@@H]2[C@H](COC[C@H](O)CN2Cc2ccc(F)cc2)O1)NCc1ccncn1,-,-,0,-,-,-
O=C(c1ccccc1F)N1CCN=C1SCc1cccnc1,0,0,0,0,99.8,0
CCOc1ccccc1C(=O)N1CCN=C1SCc1cccnc1,0,0,0,0,99.4,0
O=C(C[C@H]1C=C[C@H](NC(=O)Nc2ccc(F)cc2)[C@H](CO)O1)NCc1cccc(F)c1,-,-,0,-,-,-
CS(=O)(=O)N1[C@@H](C#N)[C@H](c2ccc(C#CC3CCCC3)cc2)[C@@H]1CO,-,-,0,-,-,-
Cc1nc(-c2ccccc2)sc1-c1n[nH]c(=S)n1C,0,0,0,0,92.0,0
Cn1c(-c2sccc2OCc2ccccc2)n[nH]c1=S,0,0,0,0,96.8,0
C[C@H](CO)N1C[C@H](C)[C@H](CN(C)C(=O)c2ccncc2)Oc2ncc(C3=CCCC3)cc2C1=O,-,-,0,-,-,-
CC(=O)Nc1ccc(NC(=O)CN(c2ccc(C34CC5CC(CC(C5)C3)C4)cc2)S(C)(=O)=O)cc1,0,11.4,0,0,0,0
CCCC1CCC(c2ccc(C(N)=O)cc2)CC1 (stereo not given),0,0,0,0,0,0
CCCC1CCC(c2ccc(/C(N)=N/O)cc2)CC1 (stereo not given),0,0,-,0,93.5,0
COc1cc(/C=C2/NC(=O)N(Cc3ccccc3F)C2=O)cc(OC)c1O,0,0,-,0,98.9,0
O=C(C[C@@H]1C=C[C@H](NC(=O)Nc2ccc(C(F)(F)F)cc2)[C@H](CO)O1)NCc1cc(F)cc(F)c1,-,-,0,-,-,-
O=C(N[C@H]1CC[C@H](CC(=O)N2CCOCC2)O[C@@H]1CO)c1ccc2c(c1)OCO2,-,-,0,-,-,-
Cc1noc(C)c1S(=O)(=O)Nc1ccc2c(c1)C(=O)N([C@@H](C)CO)C[C@H](C)[C@@H](CN(C)C(=O)Nc1ccc(C(F)(F)F)cc1)OCCCC[C@H](C)O2,-,-,0,-,-,-
CC1CCC2(CC1)NC(=S)N(c1ccccc1)N2 (stereo not given),0,0,0,0,93.4,0
COc1ccc(NC(=O)CSc2c(C)n[nH]c2C)cc1,0,0,0,0,98.6,0
COc1ccc(NC(=O)CSc2nnc(C)c3ccccc23)cc1,0,0,0,0,99.4,0
Cc1n[nH]c(C)c1SCC(=O)Nc1ccc(F)cc1,0,0,-,0,0,0
CNC(=O)C[C@@H]1CC[C@H]2[C@@H](COc3ccc(NC(=O)c4ccc(F)c(F)c4)cc3C(=O)N2C)O1,-,-,0,-,-,-
Cc1ccc(S(=O)(=O)NCC(=O)NCC2CCCCC2)cc1C,0,0,0,0,97.4,0
CCOc1ccc(S(=O)(=O)NCC(=O)NC2CCCCC2)cc1,0,0,0,-,91.1,0
Cc1cc(C)c(C)c(S(=O)(=O)NCC(=O)NCC2CCCCC2)c1C,0,0,-,0,0,0
CNC(=O)C[C@@H]1CC[C@H]2[C@H](COc3ccc(NC(=O)c4ccc(F)cc4)cc3C(=O)N2C)O1,-,-,0,-,-,-
O=C(CSc1nc2ccc(NC(=O)c3ccccc3C(=O)O)cc2s1)Nc1ccc(F)c([N+](=O)[O-])c1,0,0,0,0,-,0
COc1ccccc1C(=O)Nc1ccc2nc(SCC(=O)N(C)C)sc2c1,0,0,-,0,99.7,0
